Results as given in patent US8597618B1, “Dentifrice composition” (Toms's of Maine, Inc., priority 2012, dated 2013).

Tests used:
[1] = Foaming capability of individual surfactant components admixed with water and agitated; type: physicochemical
Method: The foaming ability was determined by a numerical score, 1 representing an excellent foamer and 5 representing a poor foamer

EpiOral ORL-200 model = assay: EpiOral in Vitro Irritation Test Method (EpiOral ORL-200 model); settings: time at which 50% of cells are viable, test terminated at 240 minutes

foaming ability as compared to sodium lauryl sulfate ([1]; individual surfactant components, in words): significantly poorer | Foaming ability ([1]; numerical score, 1 representing an excellent foamer and 5 a poor foamer): 5
Substance: sodium cocoyl glutamate
ET-50 Time (EpiOral ORL-200 model; surfactant component 1 wt % in water): >240 min | ET-50 Time (EpiOral ORL-200 model; surfactant component 2 wt % in water): >240 min
